Assay results taken from patent US20250195523A1, “ORGANIC MOLECULES FOR TREATING MYELIN PATHOLOGIES” (ICM (INSTITUT DU CERVEAU ET DE LA MOELLE ÉPINIÈRE), priority 2022, published 2025).

Key:
[1] = test system: cerebellar slices explants; assay: Ex vivo cerebellar organotypic explant culture, differentiation and myelination index; type: cell-based, mice; details: 750 nM, three days (7-10 DIV)
Experimental: We prepared cerebellar organotypic cultures from newborn (P0) mice. Cerebellar parasagittal slices (350 μm thick) were cut on a McIlwain tissue chopper and transferred onto 30 mm diameter Millipore culture inserts with […] (Millicell, Millipore). Slices were maintained in incubators at 37° C., under a humidified atmosphere containing 5% CO2 in six-well-plates containing 1 mL of slice culture media. This medium includes basal medium eagle (Invitrogen), 25% complete HBSS, 27 mM D-glucose, 100 U/mL penicillin/streptomycin, 1 mM glutamine (Sigma) and 5% horse serum (New Zealand origin, heat inactivated; Invitrogen). […]
Then, we firstly performed a simpler and faster experimental model using cerebellar slices explants to identify the best drugs having pro-oligodendrogenenic and pro-myelinating activities in this ex vivo model, to be used in the in vivo analyses. […] Therefore, we analyzed the effect of incubating the cerebellar explants for three days (7-10 days in vitro, DIV) in the presence of the top-4 small molecules having higher pro-oligodendrogenic activity in culture (sm1, sm2, sm5, sm11), and their associated negative controls (vehicle: DMSO or PBS). We then analyzed the effect in terms of OL numbers (CC1+/Sox10+ cells) and myelination (MBP labeling on CaBP+ Purkinje cell axons), by immunodetection of all four markers in the same sections. […]

[2] = test system: focal demyelination in the corpus callosum of adult mice; assay: Lysolecithin (LPC) induced focal de/remyelination model in adult mice, oral administration in drinking water; type: in vivo; details: 7 dpl, oral daily
Experimental: We weighted and anesthetized 4 months old RjOrl: SWISS mice (Janvier) with isoflurane (induced at 3%, and maintained at 1.2-1.6%). We induced focal demyelinating lesions by injecting 0.5 μl of a solution of 1% lysolecithin (LPC, Sigma in 0.9% NaCl solution) into the corpus callosum. To do so, a glass-capillary connected to a 10 μl Hamilton syringe was fixed and oriented through stereotaxic apparatus (coordinates: 1 mm lateral, 1.3 mm rostral to Bregma, 1.7 mm deep to brain surface). Animals were left to recover for a few hours in a warm chamber. Control and drugs sm5 and sm11 (sm5 at 5 μg per g and sm11 at 035 μg per g) were administered daily in 5%-glucose drinking water and their consumption was measured. Mice was perfused at 2% cold paraformaldehyde (thermos fisher) at 7 DPI.
For in-vivo cryosections (14-μm thick) of lesions, immunohistochemistry was performed after 30 mn drying at RT in a moist chamber. For myelin staining, ethanol treatment (100%) was performed for 10 mn at RT. Briefly, sections were permeabilized and blocked in a blocking buffer for 1 h (0.05% Triton X-100/10% normal goat serum/PBS). […]
To assess the pro-oligodendrogenic capacity of sm5 and sm11 in vivo in the context of adult remyelination, we used lysolecithin (LPC) to induce the breakdown of lipid-rich myelin membranes and focal demyelination in the corpus callosum of adult (4 months old) mice. […] We analyzed the lesions at 7 days post-lesion (7 dpl), when newly formed OLs have started to remyelinate the lesion in this model. […] We determined the effect of the drugs to promote oligodendrogenesis at the lesion site by combinatory immunodetection of Olig2, CC1 and Olig1, allowing to distinguish OPCs (Olig2^high/CC1^−/Olig1^nuclear-cyto cells) and three stages in OL differentiation: iOL1 (Olig2^high/CC1^high/Olig1^− cells), iOL2 (Olig2^high/CC1^high/Olig1^high-cyto cells), and mOL (Olig2^low/CC1^low/Olig1^low cells). […]

[3] = test system: neonatal chronic hypoxia model (dorsal SVZ and cortex); assay: Neonatal chronic hypoxia model of preterm birth brain injury, intranasal administration; type: in vivo, mice
Experimental: Mice aged P1 were placed in a hypoxic rearing chamber maintaining at 9.5-10.5% O2 concentration by displacement with N2. Hypoxia began at the postnatal day 3 (P3) for 8 days until P11. A separate group was maintained in a normal atmosphere (normoxic group). Drugs were administered by intranasal administration with sm5 at 5 μg per g and sm11 at 0.5 μg per g. Mucus was first permeabilized by the use of type IV hyaluronidase, then 10 μl of drugs (Sigma) was administered 3 times, 1 time a day from P11 to P13 (starting at the end of the hypoxic period, then every 24 hours) in sterile PBS (control). For analysis of proliferation, mice were injected with EdU (Sigma) in order to label cells in an actively cycling state in S-phase, then perfused 1 h later at P13. For analysis of OL maturation, mice were perfused at P19. All perfusions were performed with Ringer, followed by ice cold solution of 4% paraformaldehyde (Thermo Fisher). Mice were sacrificed at P13 or P19 by an intraperitoneal overdose of pentobarbital followed by perfusion with Ringer's lactate solution and 4% paraformaldehyde (PFA; Sigma) dissolved in 0.1M phosphate buffer (PB; pH 7.4). Brains were removed and post-fixed for 24 hours at 4° C. in 4% PFA and sectioned in 50 μm thick coronal serial sections, free floating sections.
For in vivo-cryosections (50 μm) of chronic hypoxia, antigen retrieval was performed for 20 min in a citrate buffer (ph 6.0) at 80° C., then cooled for 20 min at room temperature and washed in 0.1M PB. The following antibody were used for immunohistochemical procedures: Mouse anti-APC (CC1 IgG2B; 1:100, calbiochem); Mouse anti-Olig2 (1:1500; Millipore); Rabbit anti-Olig2 (1:400; Millipore); Rabbit anti-GSTpi (1:1000, Enzo). Blocking was performed in a TNB buffer (0.1 M PB; 0.05% Casein; 0.25% Bovine Serum Albumin; 0.25% TopBlock) with 0.4% triton-X (TNB-Tx). Sections were incubated overnight at 4° C. with gentle shaking. Following extensive washing in 0.1 M PB with 0.4% triton-X (PB-Tx), sections were incubated with appropriate secondary antibodies conjugated with Alexa Fluor 488 or 555 (1:500; Jackson or Invitrogen) for 2 hrs at room temperature. Sections were washed and counterstained with Dapi (1:5000 from a working solution at 5 mg/ml; Life Technologies; D1306). Revelation of EdU was done using Click-it™, EdU cell proliferation Kit for imaging, Alexa fluor™ 647 dye (Thermo Fisher scientific).
Chronic hypoxia is a well-established model of very preterm birth, that induces a diffuse perinatal brain lesion by housing the pups at 10% oxygen from P3 to P11 (FIG. 5A). This neonatal hypoxia induces a marginal cell death including neuronal and glial cells along with delay into forebrain development including OL maturation that appear to persist in adulthood. Thus, we assessed sm5 and sm11 effects, as pro-oligodendroglial treatment, following hypoxia. […] To examine the impact of Sm5 and Sm11 on OL lineage proliferation, brains were analyzed at P13, corresponding to the end of the treatment period, following an administration of EdU one hour before sacrifice to label cells in S-phase. […] To look at the impact of sm5 and sm11 on OL lineage proliferation and maturation, brains were analyzed within the cortex six days following the last administration (P19). […] We next assessed the impact on OL differentiation by immunodetection of OLs with CC1 antibody and oligodendroglial cells by Olig2. […]

SMILES: Nc1nc(=O)c2c([nH]1)NCC(CNc1ccc(C(=O)N[C@@H](CCC(=O)O)C(=O)O)cc1)N2C=O.[Ca+2] (stereo partly shown) [Sm11, Calcium folinate]
- differentiation index (CC1+/Sox10+ OLs number) ([1]; compared to negative controls, FIG. 3B): increased differentiation index
- myelination process (MBP+/CaBP+), myelination index ([1]; compared to vehicle, FIG. 3C): robust increase
- increase of the differentiation ratio (number of OLs per OPC) versus control ([2]; FIG. 4F): 3 fold
- reduction in the actively phagocytic microglia/macrophages (Cd68+ cells) versus control ([2]; FIG. 4H): ~2 fold
- differentiation ratio (number of OLs per OPC) ([2]; control 25% (1 OLs for 4 OPCs), FIG. 4F): 85%
- EdU+ cell density within the subventricular zone (proliferation) ([3]; P13, intranasal P11 to P13, sm5 at 5 μg per g, sm11 at 0.5 μg per g, versus hypoxia, FIG. 6A): no marked additive effects
- proportion of Olig2+ cells labeled with EdU (proliferative OPCs, dorsal SVZ) ([3]; P13, intranasal P11 to P13, versus hypoxia, FIG. 6B): significant increase
- myelinating OLs (GSTπ+ cells), GSTπ expression ([3]; P19, cortex, intranasal P11 to P13, after hypoxia, FIG. 5D): complete recovery
- OL differentiation, ratio of Olig2+ cells expressing CC1 ([3]; P19, cortex, intranasal P11 to P13, compared to hypoxic and normoxic groups, FIG. 5C): rescued the ratio at a similar level than the normoxic group
- density of oligodendroglial cells (Olig2+ cells) in the cortex ([3]; P19, intranasal P11 to P13, FIG. 5B): no major effect
